For one assay, the target named is T1, human CXCR4 (Homo sapiens, UniProt P61073).
T1 construct: using CXCR4 positive Jurkat human T-cell leukemia cells; endogenous in cells; host or cells: Jurkat human T-cell leukemia cells
Kind of assay: Competitive binding assay to human CXCR4, Jurkat cells, [125I]FC131 radioligand. Conditions: [^125I]FC131 0.1 nM, RT 2 h, mean ± SD (n = 3).

Sequences of proteins named here, by UniProt entry; tags and fusion partners are left off.
UniProt P61073, whole entry: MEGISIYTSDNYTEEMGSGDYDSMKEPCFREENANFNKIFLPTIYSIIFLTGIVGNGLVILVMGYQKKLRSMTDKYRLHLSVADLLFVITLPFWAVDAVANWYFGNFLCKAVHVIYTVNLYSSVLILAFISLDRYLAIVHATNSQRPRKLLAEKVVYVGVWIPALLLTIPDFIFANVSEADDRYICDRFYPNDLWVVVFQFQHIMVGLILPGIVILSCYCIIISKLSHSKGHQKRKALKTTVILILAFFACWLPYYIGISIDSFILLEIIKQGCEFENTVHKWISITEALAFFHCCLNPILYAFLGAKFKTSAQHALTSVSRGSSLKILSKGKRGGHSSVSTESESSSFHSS
UniProt P70658, whole entry: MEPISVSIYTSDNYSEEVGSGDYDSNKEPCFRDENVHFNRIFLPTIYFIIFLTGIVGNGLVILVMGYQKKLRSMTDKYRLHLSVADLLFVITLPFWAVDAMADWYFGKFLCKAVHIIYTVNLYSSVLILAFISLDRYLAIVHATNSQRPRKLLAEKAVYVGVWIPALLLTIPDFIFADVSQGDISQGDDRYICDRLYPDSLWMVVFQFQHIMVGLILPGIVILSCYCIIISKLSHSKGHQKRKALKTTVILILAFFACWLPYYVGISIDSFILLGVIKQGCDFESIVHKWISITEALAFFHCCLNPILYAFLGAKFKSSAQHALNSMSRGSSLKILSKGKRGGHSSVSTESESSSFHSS

A further assay concerns the target T2, murine CXCR4 (Mus musculus, UniProt P70658).
T2 construct: The murine CXCR4 expressing cell line Ep-Myc1080; endogenous in cells; host or cells: Eμ-Myc1080 mouse B-cell lymphoma cells
Briefly: Competitive binding assay to murine CXCR4, Eμ-Myc1080 cells, [125I]CPCR4.3 radioligand. Conditions: Eμ-Myc1080 mouse B-cell lymphoma cells. The protocol:
Competition studies addressing the human CXCR4 were performed using CXCR4 positive Jurkat human T-cell leukemia cells and ^125I-FC131 (^125I-2), addressing the murine CXCR4, Ep-Myc1080 mouse B-cell lymphoma cells and ^125I-CPCR4.3 (Demmer et al. A Conformationally Frozen Peptoid Boosts CXCR4 Affinity and Anti-HIV Activity. Angewandte Chemie International Edition. 2012; 51:8110-8113) as the radioligand were utilized as described previously (Poschenrieder et al., The influence of different metal-chelate conjugates of pentixafor on the CXCR4 affinity. EJNMMI research. 2016; 6:1-8).
The binding affinities (IC50) of the respective ^natLu and ^natGa derivatives towards the human and murine CXCR4 (Table 1a) were determined in a competitive binding assay using Jurkat human T-cell leukemia cells or Ep-Myc1080 mouse B-cell lymphoma cells (4.0 and 2.0*10^5 cells/well, 2 h, RT) and ^125I-2 or ^125I-CPCR4.3 (0.1 nM) as the radioligand. To be able to assess the effect of structural modifications in the SAR study on CXCR4 binding affinity, data for ^natGa-pentixafor (^natGa-3) and ^natLu-pentixather (^natLu-4) are also included in Table 1a.

[1] abbreviates: ^natGa complexes, read-out: IC50 [nM] for ^natGa-complexes and human CXCR4.
The mark [2] stands for this setting: ^natLu complexes, mean ± SD (n = 3), 120 min, read-out: mIC50[nM] ^natLu complexes and murine CXCR4.
[3] abbreviates: Table 1c, read-out: IC50 [nM] to mCXCR4.
[4] abbreviates: ^natLu complexes, read-out: IC50 [nM] for ^natLu-complexes and human CXCR4.

This note sets out measurements from US11639373B2, “Therapeutic and diagnostic agents for cancer” (TECHNISCHE UNIVERSITÄT MÜNCHEN, priority 2018, dated 2023).

Like-named read-outs stand apart in the source and are kept apart here.

With “cyclo(D-3-iodo-Tyr^1-D-[NMe]Orn^2(AMBS-DOTA)-Arg^3-Nal^4-Gly^5) [compound 4, reference compound]”, the figures for the IC50 on human CXCR4 (setting [1]) and on murine CXCR4 (setting [2]) were 6.1 ± 1.5 nM and 567 ± 62 nM, respectively.

With “cyclo[i-yorn′(DOTA-rG-(4-amino)benzoyl-)RNaIG [P4]”, the IC50 on murine CXCR4 (setting [3]) was 48.5 ± 0.5 nM; at murine CXCR4 (setting [2]), 37.1 ± 2.9 nM.

Turning to “cyclo[i-yorn′(DOTA-ra-(4-amino)benzoyl-)RNaIG [P5]”, the IC50 is 61.4 ± 17 nM on murine CXCR4 (setting [3]) and 48.5 ± 0.5 nM at murine CXCR4 (setting [2]).

Take “cyclo[i-yorn′([^natLu]DOTA-dapG-(4-amino)benzoyl-)RNaIG [^natLu-P2]”: the IC50 on human CXCR4 (setting [4]) was determined as 3.5 ± 0.3 nM.

On to “cyclo[i-yorn′([^natLu]DOTA-ra-(4-amino)benzoyl-)RNaIG [^natLu-P5]”, for which the figures for the IC50 on human CXCR4 (setting [4]) and at murine CXCR4 (setting [2]) were 1.7 ± 0.6 nM and 48.5 ± 0.5 nM, respectively.

Consider “cyclo[yorn′([^natGa]DOTA-ra-(4-amino)benzoyl-)RNaIG [^natGa-P5b]”, for which, at human CXCR4 (setting [1]), the IC50 is 0.4 ± 0.1 nM.
